This passage reports bile duct hyperplasia results from patent US7396645B1, “Cholestasis signature” (priority 2002, dated 2008).

Molecules are shown by their SMILES.

This data set has as its system livers of rats. The conditions noted are these: rat, in vivo.

Take `S=C=Nc1cccc2ccccc12`: the bile duct hyperplasia entry is recorded as “moderate”.
